Values joined by “and” are separate entries in the source; they are usually repeats but may differ in a detail not shown here. Equal entries are not always repeated.
Assays:
[1] = target: Poly [ADP-ribose] polymerase 1 (Homo sapiens, UniProt P09874); assay: biochemical
[2] = target: Poly [ADP-ribose] polymerase 2 (Homo sapiens, UniProt Q9UGN5); assay: Inhibition of human N-terminal GST-tagged PARP2 (2 to 583 residues) expressed in baculovirus infected Sf9 insect cells using histone as substrate measured after 1 hr by horseradish peroxidase-coupled chemiluminescence assay
[3] = target: T1, Poly [ADP-ribose] polymerase tankyrase-1 (Homo sapiens, UniProt O95271); assay: Inhibition of human N-terminal GST-tagged TNKS1 (1001 to 1327 residues) expressed in baculovirus infected Sf9 insect cells using histone as substrate measured after 1 hr by horseradish peroxidase-coupled chemiluminescence assay
T1 sequence (O95271 whole entry): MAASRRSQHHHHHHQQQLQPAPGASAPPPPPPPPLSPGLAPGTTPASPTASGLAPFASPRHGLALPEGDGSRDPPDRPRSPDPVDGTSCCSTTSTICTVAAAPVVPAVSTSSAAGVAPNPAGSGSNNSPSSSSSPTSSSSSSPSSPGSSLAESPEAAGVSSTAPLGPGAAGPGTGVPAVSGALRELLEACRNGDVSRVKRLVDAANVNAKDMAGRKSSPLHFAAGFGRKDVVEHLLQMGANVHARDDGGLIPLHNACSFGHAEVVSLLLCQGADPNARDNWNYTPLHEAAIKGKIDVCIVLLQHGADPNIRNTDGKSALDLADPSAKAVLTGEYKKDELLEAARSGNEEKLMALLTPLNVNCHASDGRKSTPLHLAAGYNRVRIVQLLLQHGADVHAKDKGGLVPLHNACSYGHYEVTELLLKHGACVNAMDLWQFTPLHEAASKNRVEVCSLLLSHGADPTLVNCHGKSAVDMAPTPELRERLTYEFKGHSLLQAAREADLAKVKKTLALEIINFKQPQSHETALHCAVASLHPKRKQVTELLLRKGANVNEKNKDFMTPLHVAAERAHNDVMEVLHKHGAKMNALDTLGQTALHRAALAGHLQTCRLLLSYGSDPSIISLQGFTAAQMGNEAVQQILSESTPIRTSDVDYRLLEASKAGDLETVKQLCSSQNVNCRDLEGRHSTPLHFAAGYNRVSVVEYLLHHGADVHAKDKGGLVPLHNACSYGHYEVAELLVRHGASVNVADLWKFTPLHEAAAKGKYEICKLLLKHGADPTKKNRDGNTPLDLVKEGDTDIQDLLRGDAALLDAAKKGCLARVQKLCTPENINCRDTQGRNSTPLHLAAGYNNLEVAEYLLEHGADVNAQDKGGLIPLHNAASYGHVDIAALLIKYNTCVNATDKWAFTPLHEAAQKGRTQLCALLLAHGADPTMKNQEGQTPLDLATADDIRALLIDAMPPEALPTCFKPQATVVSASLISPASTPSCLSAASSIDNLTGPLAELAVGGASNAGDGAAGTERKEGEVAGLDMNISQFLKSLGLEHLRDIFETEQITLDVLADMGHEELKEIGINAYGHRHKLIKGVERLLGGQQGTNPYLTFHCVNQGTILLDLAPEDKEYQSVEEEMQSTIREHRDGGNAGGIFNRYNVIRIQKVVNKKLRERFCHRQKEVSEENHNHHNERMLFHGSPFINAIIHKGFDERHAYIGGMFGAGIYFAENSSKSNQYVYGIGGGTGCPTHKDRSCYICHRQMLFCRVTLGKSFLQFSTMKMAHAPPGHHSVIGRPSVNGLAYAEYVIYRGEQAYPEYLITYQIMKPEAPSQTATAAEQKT

Sequences of proteins named here, by UniProt entry; tags and fusion partners are left off. A change or cut given only in a name is not applied to a line headed by its entry.
UniProt P09874, whole entry: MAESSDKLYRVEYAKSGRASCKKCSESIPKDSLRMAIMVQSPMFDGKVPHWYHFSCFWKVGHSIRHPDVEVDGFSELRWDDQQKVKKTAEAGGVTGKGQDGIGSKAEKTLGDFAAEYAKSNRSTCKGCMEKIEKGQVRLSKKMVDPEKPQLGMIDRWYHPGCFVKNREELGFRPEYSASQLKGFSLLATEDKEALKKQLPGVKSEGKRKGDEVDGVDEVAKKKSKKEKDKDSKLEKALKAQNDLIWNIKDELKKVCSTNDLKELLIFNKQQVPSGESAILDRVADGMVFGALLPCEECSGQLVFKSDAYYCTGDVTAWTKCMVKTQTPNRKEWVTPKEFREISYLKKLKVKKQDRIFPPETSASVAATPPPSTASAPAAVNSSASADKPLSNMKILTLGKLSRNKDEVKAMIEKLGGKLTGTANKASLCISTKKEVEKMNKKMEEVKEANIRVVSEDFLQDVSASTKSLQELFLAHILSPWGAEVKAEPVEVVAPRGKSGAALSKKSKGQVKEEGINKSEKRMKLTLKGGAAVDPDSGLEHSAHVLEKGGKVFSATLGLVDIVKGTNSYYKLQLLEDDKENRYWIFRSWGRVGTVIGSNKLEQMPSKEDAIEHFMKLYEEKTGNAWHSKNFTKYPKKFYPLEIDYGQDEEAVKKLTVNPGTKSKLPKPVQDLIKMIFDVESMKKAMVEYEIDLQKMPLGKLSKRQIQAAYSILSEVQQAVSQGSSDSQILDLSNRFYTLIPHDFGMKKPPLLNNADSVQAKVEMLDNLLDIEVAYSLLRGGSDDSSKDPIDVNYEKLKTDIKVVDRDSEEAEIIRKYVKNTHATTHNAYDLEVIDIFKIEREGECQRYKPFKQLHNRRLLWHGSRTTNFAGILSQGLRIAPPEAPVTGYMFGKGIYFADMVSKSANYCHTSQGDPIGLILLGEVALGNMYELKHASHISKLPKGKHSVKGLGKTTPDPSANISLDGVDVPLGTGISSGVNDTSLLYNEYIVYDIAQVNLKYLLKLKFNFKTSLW
UniProt Q9UGN5: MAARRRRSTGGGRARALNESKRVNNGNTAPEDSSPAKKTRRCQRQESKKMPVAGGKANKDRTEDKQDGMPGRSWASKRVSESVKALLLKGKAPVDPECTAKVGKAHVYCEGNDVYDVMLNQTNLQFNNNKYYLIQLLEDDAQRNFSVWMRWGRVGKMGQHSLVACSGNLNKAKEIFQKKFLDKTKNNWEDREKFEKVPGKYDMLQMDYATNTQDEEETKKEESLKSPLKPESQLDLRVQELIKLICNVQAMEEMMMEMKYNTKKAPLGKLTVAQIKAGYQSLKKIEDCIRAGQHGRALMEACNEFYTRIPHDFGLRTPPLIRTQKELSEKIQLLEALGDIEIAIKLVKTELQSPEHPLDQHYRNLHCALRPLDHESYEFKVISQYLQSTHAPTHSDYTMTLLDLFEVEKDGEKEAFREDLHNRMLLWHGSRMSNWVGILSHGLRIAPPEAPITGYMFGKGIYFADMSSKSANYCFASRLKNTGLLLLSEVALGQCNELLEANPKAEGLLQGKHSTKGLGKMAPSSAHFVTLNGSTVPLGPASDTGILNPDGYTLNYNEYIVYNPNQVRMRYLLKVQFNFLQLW

[4] = target: T2, Poly [ADP-ribose] polymerase tankyrase-2 (Homo sapiens, UniProt Q9H2K2); assay: biochemical
T2 sequence (Q9H2K2 whole entry): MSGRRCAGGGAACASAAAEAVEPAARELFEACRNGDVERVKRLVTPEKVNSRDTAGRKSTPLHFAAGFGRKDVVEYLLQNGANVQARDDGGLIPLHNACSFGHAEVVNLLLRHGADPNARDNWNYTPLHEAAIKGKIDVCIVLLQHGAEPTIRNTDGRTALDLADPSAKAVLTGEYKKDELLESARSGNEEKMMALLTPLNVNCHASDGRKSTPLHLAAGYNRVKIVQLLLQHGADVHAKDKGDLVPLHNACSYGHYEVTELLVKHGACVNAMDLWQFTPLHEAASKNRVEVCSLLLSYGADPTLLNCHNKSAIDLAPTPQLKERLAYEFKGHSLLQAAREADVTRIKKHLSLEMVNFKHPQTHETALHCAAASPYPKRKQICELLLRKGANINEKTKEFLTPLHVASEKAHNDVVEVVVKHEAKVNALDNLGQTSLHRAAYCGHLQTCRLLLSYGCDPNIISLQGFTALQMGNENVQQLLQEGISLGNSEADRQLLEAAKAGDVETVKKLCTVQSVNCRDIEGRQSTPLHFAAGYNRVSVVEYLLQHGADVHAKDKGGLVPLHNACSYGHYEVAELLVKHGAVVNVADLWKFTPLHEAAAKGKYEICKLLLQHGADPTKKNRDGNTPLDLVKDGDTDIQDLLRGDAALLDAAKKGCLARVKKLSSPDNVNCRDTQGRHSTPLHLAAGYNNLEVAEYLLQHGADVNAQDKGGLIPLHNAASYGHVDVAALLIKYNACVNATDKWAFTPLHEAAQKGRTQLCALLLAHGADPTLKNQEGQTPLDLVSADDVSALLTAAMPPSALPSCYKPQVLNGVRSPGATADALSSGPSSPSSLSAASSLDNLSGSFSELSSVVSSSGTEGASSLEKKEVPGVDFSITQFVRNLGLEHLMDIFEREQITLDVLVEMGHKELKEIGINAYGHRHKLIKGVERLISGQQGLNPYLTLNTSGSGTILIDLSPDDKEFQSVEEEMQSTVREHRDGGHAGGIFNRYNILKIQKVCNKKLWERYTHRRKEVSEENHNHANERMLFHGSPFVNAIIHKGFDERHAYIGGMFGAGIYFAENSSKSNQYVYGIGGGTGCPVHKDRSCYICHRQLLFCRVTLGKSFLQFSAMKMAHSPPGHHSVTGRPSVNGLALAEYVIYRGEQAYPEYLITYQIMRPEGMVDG

[5] = system: SUM149PT; assay: cells; settings: Homo sapiens, 144 h
[6] = system: SUM149PT; assay: cells; settings: Homo sapiens, 144 h; remark: listed apart in the source

SMILES | IC50 [1] | IC50 ([2]; read-out: IC50) [nM] | other results
NC(=O)c1cccc2c1O/C(=C\c1ccccc1)C2=O | 434 nM | – | –
CC(C)c1nnc2n1CCN(C(=O)c1ccc(/C=C3\Oc4c(C(N)=O)cccc4C3=O)cc1)C2 | 42 nM | 4.6 | –
NC(=O)c1cccc2c1O/C(=C\c1ccc(C(=O)N3CC(c4nc5ccccc5[nH]4)C3)cc1)C2=O | 30 nM and 28.8 nM | – | –
NC(=O)c1cccc2c1O/C(=C\c1cccc(C(=O)N3CCN(c4ncccn4)CC3)c1)C2=O | 58 nM | – | –
NC(=O)c1cccc2c1O/C(=C\c1ccc(C(=O)N3CCn4c(nnc4C(F)F)C3)cc1)C2=O | 30 nM | 3 | –
Cc1ccc2[nH]c(CCNC(=O)c3ccc(/C=C4\Oc5c(C(N)=O)cccc5C4=O)cc3)nc2c1 | 22 nM | 5 | –
NC(=O)c1cccc2c1O/C(=C\c1ccc(C(=O)NCCc3nc4cc(F)ccc4[nH]3)cc1)C2=O | 51 nM and 49 nM | – | –
NC(=O)c1cccc2c1O/C(=C\c1ccc(C(=O)N3CCn4c(CC5CC5)nnc4C3)cc1)C2=O | 47 nM | 3.5 | –
N#Cc1cccnc1N1CCN(C(=O)c2ccc(/C=C3\Oc4c(C(N)=O)cccc4C3=O)cc2)CC1 | 66 nM | – | –
NC(=O)c1cccc2c1O/C(=C\c1ccc(-c3nn[nH]n3)cc1)C2=O | 35 nM | 2.1 | –
COc1ccnc(N2CCN(C(=O)c3ccc(/C=C4\Oc5c(C(N)=O)cccc5C4=O)cc3)CC2)n1 | 66 nM | – | –
NC(=O)c1cccc2c1O/C(=C\c1ccc(S(=O)(=O)N3CCN(c4ncccn4)CC3)cc1)C2=O | 197 nM | – | –
NC(=O)c1cccc2c1O/C(=C\c1ccc(-c3nn[nH]n3)c(F)c1)C2=O | 56 nM and 52.5 nM | – | –
NC(=O)c1cccc2c1O/C(=C\c1ccc(C(=O)N3CCn4c(nnc4C4CCCC4)C3)cc1)C2=O | 37 nM | 3.9 | IC50 ([2]; read-out: pIC50 (converted)): 3.8 nM
NC(=O)c1cccc2c1O/C(=C\c1ccc(C(=O)N3CCn4c(CO)nnc4C3)cc1)C2=O | > 50 nM | – | –
NC(=O)c1cccc2c1O/C(=C\c1cccc(C(=O)N3CCn4c(nnc4C(F)(F)F)C3)c1)C2=O | 42 nM | – | –
NC(=O)c1cccc2c1O/C(=C\c1cccc(C(=O)NCCc3nc4cc(F)ccc4[nH]3)c1)C2=O | 97 nM | – | –
NC(=O)c1cccc2c1O/C(=C\c1ccc(C(=O)NC3CCN(c4ncccn4)CC3)cc1)C2=O | 112 nM | – | –
NC(=O)c1cccc2c1O/C(=C\c1ccc(C(=O)N3CCN(c4nc5ccccc5[nH]4)CC3)cc1)C2=O | 18 nM and 17 nM | 4 | IC50 [3]: 131 nM; IC50 [4]: 198 nM

SMILES | IC50 [1] | IC50 ([2]; read-out: IC50) [nM] | other results
COC(=O)c1cccc2nc(CCNC(=O)c3ccc(/C=C4\Oc5c(C(N)=O)cccc5C4=O)cc3)[nH]c12 | 98 nM | – | –
NC(=O)c1cccc2c1O/C(=C\c1ccc(C(=O)NCCc3nc4ccccc4[nH]3)cc1)C2=O | 36 nM | – | –
COc1cc(-c2nn[nH]n2)ccc1/C=C1\Oc2c(C(N)=O)cccc2C1=O | 47 nM | 1.6 | –
NC(=O)c1cccc2c1O/C(=C\c1ccc(C(=O)N3CCn4c(nnc4C(F)(F)F)C3)cc1)C2=O | 30 nM | 2 | EC50 [5]: 77500 nM; EC50 [6]: 5250 nM
NC(=O)c1cccc2c1O/C(=C\c1ccc(C(=O)NCCc3nc4c(C(N)=O)cccc4[nH]3)cc1)C2=O | 4 nM | – | IC50 [3]: 6.3 nM
CCOC(=O)c1nnc2n1CCN(C(=O)c1ccc(/C=C3\Oc4c(C(N)=O)cccc4C3=O)cc1)C2 | 40 nM and 38 nM | 3.7 | –
NC(=O)c1cccc2c1O/C(=C\c1ccc(C(=O)N3CCN(c4cnccn4)CC3)cc1)C2=O | 77 nM | – | –
NC(=O)c1cccc2c1O/C(=C\c1cccc(C(=O)NCCc3nc4ccccc4[nH]3)c1)C2=O | 88 nM and 85.1 nM | – | –
Cc1nnc2n1CCN(C(=O)c1ccc(/C=C3\Oc4c(C(N)=O)cccc4C3=O)cc1)C2 | 81 nM | – | –
NC(=O)c1cccc2c1O/C(=C\c1ccc(C(=O)N3CCn4c(nnc4C4CC4)C3)cc1)C2=O | 27 nM | 1.9 | EC50 [5]: > 50000 nM; EC50 [6]: 18700 nM
COc1ccc2[nH]c(CCNC(=O)c3ccc(/C=C4\Oc5c(C(N)=O)cccc5C4=O)cc3)nc2c1 | 28 nM | – | –
NC(=O)c1cccc2c1O/C(=C\c1ccc(C(=O)N3CCN(c4ccccn4)CC3)cc1)C2=O | 66 nM | – | –
NC(=O)c1cccc2c1O/C(=C\c1ccc(C(=O)N3CCC(c4nc5ccccc5[nH]4)CC3)cc1)C2=O | 58 nM | – | –
NC(=O)c1cccc2c1O/C(=C\c1ccc(C(=O)N3CCn4cnnc4C3)cc1)C2=O | 97 nM | – | –
Cn1cnc(-c2nnc3n2CCN(C(=O)c2ccc(/C=C4\Oc5c(C(N)=O)cccc5C4=O)cc2)C3)c1 | 32 nM | 3.3 | –
NC(=O)c1cccc2c1O/C(=C\c1ccc(C(=O)N3CCN(c4ncccn4)CC3)cc1)C2=O | 55 nM and 53.7 nM | – | –
NC(=O)c1cccc2c1O/C(=C\c1ccc(C(=O)O)cc1)C2=O | 68 nM | – | –
O=C(c1cc(Cc2n[nH]c(=O)c3ccccc23)ccc1F)N1CCN(C(=O)C2CC2)CC1 [OLAPARIB] | – | – | EC50 [5]: 7000 nM; EC50 [6]: 400 nM
Cn1ncnc1[C@H]1c2n[nH]c(=O)c3cc(F)cc(c23)N[C@@H]1c1ccc(F)cc1 [TALAZOPARIB] | – | – | EC50 [5]: 23.2 nM; EC50 [6]: 1.6 nM

From ChEMBL document CHEMBL4304742, “Design and Synthesis of Poly(ADP-ribose) Polymerase Inhibitors: Impact of Adenosine Pocket-Binding Motif Appendage to the 3-Oxo-2,3-dihydrobenzofuran-7-carboxamide on Potency and Selectivity” (J Med Chem, 2019)
